Measured values: patent publication US6177441A, “Treating red blood cell solutions with anti-viral agents” (Cerus Corporation, priority 1998, dated 2001)

Columns and labels:
[1] = tested on: R17; assay: R17 inactivation in red blood cells, QM vs chlorambucil (Example 10); assay type: cell-based, bacteriophage R17; conditions: QM all concentrations; chlorambucil up to 300 μg/ml
[2] = tested on: red blood cells; assay: Extracellular potassium of treated red blood cells (Example 10); assay type: cell-based
[3] = tested on: red blood cells; conditions: 80 μg/ml
[4] = Solubility observations of stock solutions
[5] = tested on: R17; assay: Kinetics of R17 inactivation by QM with NAC quench (Example 3)
[6] = tested on: red blood cells; assay: ATP of QM treated packed red blood cells on storage (Example 11)
[7] = tested on: red blood cells; assay: 2,3-DPG of QM treated packed red blood cells on storage (Example 11)
[8] = tested on: red blood cells; assay: IgG binding to QM treated packed red blood cells on storage (Example 11)
[9] = tested on: R17; assay: R17 phage inactivation by QM in Adsol or DMSO, red blood cells (Example 1); conditions: for Log Titer: 30% Htc
[10] = tested on: red blood cells; assay: Potassium levels of QM treated packed red blood cells on storage (Example 11)
[11] = tested on: R17; assay: R17 inactivation by QM after pre-incubation in Adsol, red blood cells or with Amberlite XAD-16 (Example 5); conditions: for Log Titer: QM-RBC
[12] = under conditions of effective R17 inactivation

COc1ccc2nc3cc(Cl)ccc3c(NC(C)CCCN(CCCl)CCCl)c2c1.Cl.Cl (stereo not drawn)
R17 inactivation [1]: completely inactivated
Extracellular Potassium ([2]; 10 μg/ml, day 0): 0.73 mM
Extracellular Potassium ([2]; 10 μg/ml, day 1): 1.65 mM
Extracellular Potassium ([2]; 10 μg/ml, day 2): 2.76 mM
Extracellular Potassium ([2]; 10 μg/ml, day 3): 3.64 mM
Extracellular Potassium ([2]; 10 μg/ml, day 4): 4.26 mM
Extracellular Potassium ([2]; 10 μg/ml, day 6): 5.30 mM
Extracellular Potassium ([2]; 10 μg/ml, day 7): 5.69 mM
Extracellular Potassium ([2]; 30 μg/ml, day 0): 0.76 mM
Extracellular Potassium ([2]; 30 μg/ml, day 1): 1.94 mM
Extracellular Potassium ([2]; 30 μg/ml, day 2): 3.08 mM
Extracellular Potassium ([2]; 30 μg/ml, day 3): 4.00 mM
Extracellular Potassium ([2]; 30 μg/ml, day 4): 4.63 mM
Extracellular Potassium ([2]; 30 μg/ml, day 6): 5.76 mM
Extracellular Potassium ([2]; 30 μg/ml, day 7): 6.15 mM
Extracellular Potassium ([2]; 100 μg/ml, day 0): 0.78 mM
Extracellular Potassium ([2]; 100 μg/ml, day 1): 2.48 mM
Extracellular Potassium ([2]; 100 μg/ml, day 2): 4.05 mM
Extracellular Potassium ([2]; 100 μg/ml, day 3): 5.23 mM
Extracellular Potassium ([2]; 100 μg/ml, day 4): 6.06 mM
Extracellular Potassium ([2]; 100 μg/ml, day 6): 7.50 mM
Extracellular Potassium ([2]; 100 μg/ml, day 7): 8.02 mM
Extracellular Potassium ([2]; 300 μg/ml, day 0): 0.82 mM
Extracellular Potassium ([2]; 300 μg/ml, day 1): 3.61 mM
Extracellular Potassium ([2]; 300 μg/ml, day 2): 5.59 mM
Extracellular Potassium ([2]; 300 μg/ml, day 3): 7.37 mM
Extracellular Potassium ([2]; 300 μg/ml, day 4): 8.32 mM
Extracellular Potassium ([2]; 300 μg/ml, day 6): > 10 mM
Extracellular Potassium ([2]; 300 μg/ml, day 7): 11.20 mM
changes in red blood cell function ([2]; potassium leakage and IgG binding, conditions of Example 10): only induced slight changes in red blood cell function
LOSS PER DAY ([3]; untreated 2.66%): 2.77%
RECOVERY ([3]; untreated 90.3 ± 3.2): 80.8 ± 4.7
solubility observation ([4]; 0.4 mg/ml in Adsol): suspension, not a solution
solubility observation ([4]; 0.6 mg/ml in DMEM/15% FBS): colloidal suspension rather than a solution
solubility observation ([4]; 1.0 mg/ml in 50% Htc red blood cells): contained definite particles
solubility observation ([4]; 1.0 mg/ml stock mixed 20 μl + 180 μl packed red blood cells): appeared clear
solubility observation ([4]; 2.0 mg/ml in ice cold Adsol): suspension
solubility observation ([4]; 2 mg/ml in saline): almost completely dissolved
solubility observation ([4]; 2.9 mg in 0.967 ml Adsol): material remained in suspension
solubility observation ([4]; 3 mg/ml stock, 0.3 mg/ml in 50% Htc red blood cells): evidence of precipitating out of solution
solubility observation ([4]; 2.5, 5.0, 10, or 20 μg/ml in R17-Adsol samples): completely solubilized
time to complete R17 inactivation [5]: ≤ 2 h
ATP ([6]; 2.5 μg/ml QM, day 1): 0.78 mM
ATP ([6]; 2.5 μg/ml QM, day 9): 0.80 mM
ATP ([6]; 2.5 μg/ml QM, day 16): 0.74 mM
ATP ([6]; 5 μg/ml QM, day 1): 0.78 mM
ATP ([6]; 5 μg/ml QM, day 9): 0.81 mM
ATP ([6]; 5 μg/ml QM, day 16): 0.73 mM
ATP ([6]; 10 μg/ml QM, day 1): 0.76 mM
ATP ([6]; 10 μg/ml QM, day 9): 0.81 mM
ATP ([6]; 10 μg/ml QM, day 16): 0.73 mM
ATP ([6]; 20 μg/ml QM, day 1): 0.78 mM
ATP ([6]; 20 μg/ml QM, day 9): 0.80 mM
ATP ([6]; 20 μg/ml QM, day 16): 0.73 mM
ATP ([6]; 40 μg/ml QM, day 1): 0.76 mM
ATP ([6]; 40 μg/ml QM, day 9): 0.80 mM
ATP ([6]; 40 μg/ml QM, day 16): 0.72 mM
effect on ATP content [6, 12]: no significant effects
2,3-DPG ([7]; 2.5 μg/ml QM, day 1): 2.20
2,3-DPG ([7]; 2.5 μg/ml QM, day 9): 0.88
2,3-DPG ([7]; 2.5 μg/ml QM, day 16): 0.10
2,3-DPG ([7]; 5 μg/ml QM, day 1): 2.35
2,3-DPG ([7]; 5 μg/ml QM, day 9): 0.97
2,3-DPG ([7]; 5 μg/ml QM, day 16): 0.28
2,3-DPG ([7]; 10 μg/ml QM, day 1): 2.06
2,3-DPG ([7]; 10 μg/ml QM, day 9): 1.11
2,3-DPG ([7]; 10 μg/ml QM, day 16): 0.34
2,3-DPG ([7]; 20 μg/ml QM, day 1): 2.63
2,3-DPG ([7]; 20 μg/ml QM, day 9): 1.43
2,3-DPG ([7]; 20 μg/ml QM, day 16): 1.36
2,3-DPG ([7]; 40 μg/ml QM, day 1): 2.09
2,3-DPG ([7]; 40 μg/ml QM, day 9): 1.04
2,3-DPG ([7]; 40 μg/ml QM, day 16): 0.11
effect on 2,3-DPG content [7, 12]: no significant effects
mean FL ([8]; 2.5 μg/ml QM, day 1): 4.77
median FL ([8]; 2.5 μg/ml QM, day 1): 4.45
mean FL ([8]; 2.5 μg/ml QM, day 9): 4.77
median FL ([8]; 2.5 μg/ml QM, day 9): 4.45
mean FL ([8]; 2.5 μg/ml QM, day 16): 4.77
median FL ([8]; 2.5 μg/ml QM, day 16): 4.45
mean FL ([8]; 5 μg/ml QM, day 1): 4.79
median FL ([8]; 5 μg/ml QM, day 1): 4.45
mean FL ([8]; 5 μg/ml QM, day 9): 4.79
median FL ([8]; 5 μg/ml QM, day 9): 4.45
mean FL ([8]; 5 μg/ml QM, day 16): 4.79
median FL ([8]; 5 μg/ml QM, day 16): 4.45
mean FL ([8]; 10 μg/ml QM, day 1): 4.96
median FL ([8]; 10 μg/ml QM, day 1): 4.7
mean FL ([8]; 10 μg/ml QM, day 9): 4.96
median FL ([8]; 10 μg/ml QM, day 9): 4.7
mean FL ([8]; 10 μg/ml QM, day 16): 4.96
median FL ([8]; 10 μg/ml QM, day 16): 4.7
mean FL ([8]; 20 μg/ml QM, day 1): 5.73
median FL ([8]; 20 μg/ml QM, day 1): 5.19
mean FL ([8]; 20 μg/ml QM, day 9): 5.73
median FL ([8]; 20 μg/ml QM, day 9): 5.19
mean FL ([8]; 20 μg/ml QM, day 16): 5.73
median FL ([8]; 20 μg/ml QM, day 16): 5.19
mean FL ([8]; 40 μg/ml QM, day 1): 6.31
median FL ([8]; 40 μg/ml QM, day 1): 6.04
mean FL ([8]; 40 μg/ml QM, day 9): 6.31
median FL ([8]; 40 μg/ml QM, day 9): 6.04
mean FL ([8]; 40 μg/ml QM, day 16): 6.31
median FL ([8]; 40 μg/ml QM, day 16): 6.04
effect on IgG binding to RBCs [8, 12]: only modest effects on IgG binding to RBCs
Log Titer ([9]; QM 10 μg/ml, solvent Adsol): 1.0
Log Titer ([9]; QM 20 μg/ml, solvent DMSO): 1.0
R17 inactivation ([9]; above 10 μg/ml, to the limit of detection of assay): complete inactivation is achieved
R17 inactivation ([9]; concentrations as low as 2.5 μg/ml): effective in inactivating R17
K^+ ([10]; 2.5 μg/ml QM, day 1): 7.42
K^+ ([10]; 2.5 μg/ml QM, day 2): 7.42
K^+ ([10]; 2.5 μg/ml QM, day 7): 12.90
K^+ ([10]; 2.5 μg/ml QM, day 8): 13.64
K^+ ([10]; 2.5 μg/ml QM, day 9): 15.86
K^+ ([10]; 2.5 μg/ml QM, day 16): 31.76
K^+ ([10]; 5 μg/ml QM, day 1): 7.24
K^+ ([10]; 5 μg/ml QM, day 2): 7.24
K^+ ([10]; 5 μg/ml QM, day 7): 13.28
K^+ ([10]; 5 μg/ml QM, day 8): 14.82
K^+ ([10]; 5 μg/ml QM, day 9): 15.18
K^+ ([10]; 5 μg/ml QM, day 16): 32.96
K^+ ([10]; 10 μg/ml QM, day 1): 7.24
K^+ ([10]; 10 μg/ml QM, day 2): 7.24
K^+ ([10]; 10 μg/ml QM, day 7): 13.06
K^+ ([10]; 10 μg/ml QM, day 8): 15.16
K^+ ([10]; 10 μg/ml QM, day 9): 14.68
K^+ ([10]; 10 μg/ml QM, day 16): 31.64
K^+ ([10]; 20 μg/ml QM, day 1): 7.00
K^+ ([10]; 20 μg/ml QM, day 2): 7.00
K^+ ([10]; 20 μg/ml QM, day 7): 12.90
K^+ ([10]; 20 μg/ml QM, day 8): 15.38
K^+ ([10]; 20 μg/ml QM, day 9): 14.44
K^+ ([10]; 20 μg/ml QM, day 16): 31.36
K^+ ([10]; 40 μg/ml QM, day 1): 6.95
K^+ ([10]; 40 μg/ml QM, day 2): 6.95
K^+ ([10]; 40 μg/ml QM, day 7): 12.88
K^+ ([10]; 40 μg/ml QM, day 8): 12.44
K^+ ([10]; 40 μg/ml QM, day 9): 15.44
K^+ ([10]; 40 μg/ml QM, day 16): 30.92
effect on potassium-leakage [10, 12]: no significant effects
time of removal of QM from blood by Amberlite XAD-16 [11]: ≤ 1 h
QM anti-viral activity after pre-incubation with red blood cells ([11]; 4 hour pre-incubation): removed
Log Titer ([11]; 30 min): 5.0
Log Titer ([11]; 120 min): 8.0
